Values of other authors in patent US6693094B2, “Biguanide and sulfonylurea formulations for the prevention and treatment of insulin resistance and type 2 diabetes mellitus” (Chrono RX LLC, priority 2001, dated 2004).

Conditions: in vivo

CN(C)C(=N)N=C(N)N [Metformin, metformin]
excretion: excreted unchanged in the urine
